Laboratory results: US11311475B2, “Skin care compositions containing peptide compound and aphanothece sacrum exopolysaccharide extract” (The Procter & Gamble Company, priority 2019, dated 2022)

Test: Franz diffusion cell skin penetration assay
Assay type: in vitro ADME, human
Conditions: for PKEK Skin Penetration: Surface Residual / PKEK Skin Penetration: Dermis / PKEK Skin Penetration: Epidermis / PKEK Skin Penetration: Total Penetration / PKEK Skin Penetration: Receptor: PKEK 40 ppm; for PKEK Skin Penetration: Surface Residual: 3H-spiked, 24 h after topical dose on human skin; for PKEK Skin Penetration: Total Penetration: epidermis+dermis+receptor; for PKEK Skin Penetration: Receptor: receptor solution (transdermal)
Experimental: The method is described. The skin penetration of pal-KT (5 ppm) and PKEK [SEQ ID NO: 2] (40 ppm) is assessed using the Franz diffusion cell assay (4, T. J. Franz, J. Invest. Dermatol. 64: 190-195, 1975; T. J. Franz, et al., Skin Pharmacol. Physiol. 22: 276-286, 2009). The peptides are formulated in a skin care silicone-in-water (SWF) formulation with or without 10 wt % SACRAN. The formulations are spiked with ^14C-pal-KT or ^3H-PKEK. Twenty-four hours after topically dosed on human skin, residual product is removed from the skin surface, the epidermal and dermal layers were separated, and receptor solutions (transdermal) are collected.

[1] = SWF + 10 wt % SACRAN versus SWF, 24 h, human skin
[2] = SWF formulation without SACRAN (control), 24 h

## Proline-Lysine-Glycine-Lysine [PKEK]
[1]
  amount recovered from the surface of the skin with SACRAN versus without (in words): decrease
  effect of addition of SACRAN on skin penetration (in words): numerical increase
SWF + 10 wt % SACRAN
  PKEK Skin Penetration: Surface Residual: 1762 ± 161 ng/cm^2
SWF + 10 wt % SACRAN, 24 h
  PKEK Skin Penetration: Dermis: 49 ± 11 ng/cm^2
  PKEK Skin Penetration: Epidermis: 382 ± 67 ng/cm^2
  PKEK Skin Penetration: Total Penetration: 770 ± 161 ng/cm^2
  PKEK Skin Penetration: Receptor: 339 ± 134 ng/cm^2
SWF + SACRAN versus SWF, single topical application
  increase in skin penetration by addition of SACRAN to SWF: 60%
SWF formulation without SACRAN (control)
  PKEK Skin Penetration: Surface Residual: 2048 ± 59 ng/cm^2
[2]
  PKEK Skin Penetration: Dermis: 54 ± 10 ng/cm^2
  PKEK Skin Penetration: Epidermis: 258 ± 31 ng/cm^2
  PKEK Skin Penetration: Total Penetration: 483 ± 59 ng/cm^2
  PKEK Skin Penetration: Receptor: 169 ± 54 ng/cm^2
